In PubChem BioAssay AID2147 (National Center for Advancing Translational Sciences (NCATS), 2009):
The entries are a selection whose mix differs from that of the whole data set. Some tests of the compounds listed are not included; inactive here does not mean inactive elsewhere. Results filed as inconclusive are left out. The source made the active and inactive calls. Calls come from the whole dose curve; as a rule, active = well fitted inhibition curve with a large enough effect (not every such curve was filed as active); inconclusive = small, poorly fitted or top-dose-only effect, or another doubt; inactive = no such curve, though single readings can be large or run the other way.

By UniProt entry, the sequences of proteins in these tests, tags left out. Residues count along the entry.
UniProt B2RXH2, 1-337 limits assumed: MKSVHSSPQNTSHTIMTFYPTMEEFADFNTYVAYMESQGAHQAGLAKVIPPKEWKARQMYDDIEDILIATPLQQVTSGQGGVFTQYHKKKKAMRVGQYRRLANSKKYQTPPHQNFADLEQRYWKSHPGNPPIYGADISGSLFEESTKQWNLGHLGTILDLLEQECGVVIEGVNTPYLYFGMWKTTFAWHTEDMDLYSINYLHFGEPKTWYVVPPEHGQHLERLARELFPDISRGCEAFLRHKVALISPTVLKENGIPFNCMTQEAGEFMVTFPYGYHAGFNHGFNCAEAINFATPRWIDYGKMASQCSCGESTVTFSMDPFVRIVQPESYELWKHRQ

Biological target: Lysine-specific demethylase 4E (Homo sapiens) (UniProt B2RXH2)
Assay: qHTS Assay for Inhibitors of Human Jumonji Domain Containing 2E (JMJD2E)
Settings: JMJD2E catalytic domain, FDH-coupled NADH fluorescence (FDH is formaldehyde dehydrogenase); at 57.1 µM (top of the series)
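Note: 0% = wells with enzyme and -100% = buffer wells without enzyme; nearly all actives have a fitted effect of over 50% in size.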

| Structure (SMILES) | activity change, negative = inhibition |
| --- | --- |
| O=C(OC1CN2CCC1CC2)C(CO)(c1ccccc1)c1ccccc1 (configuration not stated) | inactive: -2.86% |
| COc1cccc(C(=O)NCC2(N3CCCCC3)CCCCC2)c1 | inactive: -0.724% |
| CN(C)C1CCCC1OC(=O)C(O)(c1ccccc1)c1ccccc1 (configuration not stated) | inactive: -1.11% |
| Cc1ccccc1C(=O)NCC1(N2CCCCC2)CCCCC1 | inactive: -2.06% |
| O=C(NCC1(N2CCCCC2)CCCCC1)c1cc([N+](=O)[O-])ccc1Cl | inactive: -3.92% |
| CC(C)N1C(=O)CC2(CCN(CCOC(=O)C(O)(c3ccccc3)c3ccccc3)CC2)C1=O | inactive: -9.87% |
| CCN(CC)CC(C)C(C)OC(=O)C(O)(c1ccccc1)c1ccccc1 (configuration not stated) | inactive: -1.1% |
